## AlphaSeq binding of Ab-95 light chain variants to a spike HR2 peptide

Data: MIT Lincoln Laboratory AlphaSeq set, Engelhart et al. 2022, doi:10.1038/s41597-022-01779-4, as distributed in FLAb.

Binding partner: SARS-CoV-2 spike HR2 peptide, sequence PDVDLGDISGINAS.

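The starting antibody came from a phage panning campaign against this peptide. The library (AAYL52) carries one to three amino acid substitutions per variant, with no insertions or deletions. In AlphaSeq, yeast of one mating type display the scFv and yeast of the other type display the target. The frequency of each diploid, read from paired DNA barcodes, reflects how well the two displayed proteins bind. Read counts were normalised to the haploid input and turned into Kd by a linear fit to BCL2-family pairs of known affinity, for each replicate. The assay was run in three technical replicates.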

The variants keep the heavy chain, the linker and the frameworks of Ab-95 (scFv order VH, three GGGGS repeats, VL).
VH: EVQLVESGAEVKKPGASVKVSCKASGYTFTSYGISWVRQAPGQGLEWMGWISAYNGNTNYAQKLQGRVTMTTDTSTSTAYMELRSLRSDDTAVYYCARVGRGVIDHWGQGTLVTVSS
VL: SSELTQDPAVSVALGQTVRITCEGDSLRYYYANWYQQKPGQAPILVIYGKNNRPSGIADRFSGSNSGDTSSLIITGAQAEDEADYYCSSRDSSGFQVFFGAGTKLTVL

Variants are written as CDR1, CDR2 and CDR3 of the light chain (limits as in the source). Parent: EGDSLRYYYAN, GKNNRPS, SSRDSSGFQVF.
This list gathers variants with a substitution at P54 (VL, numbered from residue 1).
Kd is apparent (estimated from mating counts) and averaged on the log scale over replicates with a signal. Smaller is tighter.
An entry "nd" has no value in the source: the pair was not observed among the diploids in any replicate. This suggests poor binding but is not conclusive.

CDR-L1	CDR-L2	CDR-L3	Kd (apparent)	seen in	signal with controls
EGDSLRYYYAN	GKNNRVS	SSRDSSGFQSC	650 nM	3/3	5/9
EGDSLRYYYAN	KKNNRES	SSRDSSGLQVF	22 µM	1/3	2/9
EGDSLRYYYAN	GKNNSRS	SSGDSSGFQVF	34 µM	1/3	3/9
EGDSWDYYYAN	GKNNRMS	SSRDSSGFQVF	nd	0/3	3/9
EGDSLRYYYAN	GKNNRTS	SSRDSSGFQTF	580 nM	3/3	0/9
EGDSLRYYYAN	GKNNRHS	SSWDSSGAQVF	410 nM	3/3	3/9
EGDSLRYYLAN	GKNNRIS	ISRDSSGFQVF	3.5 µM	1/3	1/9
EGDSLRYYYAN	GKNNRKS	STRDGSGFQVF	nd	0/3	2/9
EGHSSRYYYAN	GKNNRSS	SSRDSSGFQVF	1.2 µM	1/3	4/9
EGDSLRYYYDN	CKNNRHS	SSRDSSGFQVF	78 µM	2/3	3/9
EGNSLRYYYAN	GKNNRYS	SSRDASGFQVF	470 nM	3/3	2/9
EGDSLRYCYAN	GKNNRIS	SSRDSSGFQVF	800 nM	1/3	0/9
EGDSLRYYYAN	KKNNRAS	SSRDSSGFQVF	24 µM	1/3	6/9
EGDCLRYQYAN	GKNNRCS	SSRDSSGFQVF	59 nM	3/3	2/9
EGDSLRYYYAH	GKNNRTS	SSRDSSGFEVF	800 nM	1/3	1/9
EGDSLRYYYAE	GKNDRRS	SSRDSSGFQVF	19 µM	3/3	7/9
EGDSLRYYYAN	GKNNRVS	SSRDSKGFQVH	860 nM	3/3	1/9
EGDSLRYYYAD	GKNNRGS	SSRDSSGFQPF	100 µM	2/3	7/9
EGDSLRYYYAN	GKNARRN	SSRDSSGFQVF	1.4 µM	3/3	3/9
EGDSLRYAYAN	GKNNRMS	SSRDSSGFGVF	35 nM	3/3	2/9
EGDHLRYYCAN	GKNNRLS	SSRDSSGFQVF	2.9 µM	3/3	2/9
EKDSLRYYYAN	GINNRCS	SSRDSSGFQVF	98 µM	1/3	2/9
EGNSLRTYYAN	GKNNRMS	SSRDSSGFQVF	100 nM	3/3	2/9
EGDSLKYYYAN	GKNNRRS	SSMDSSGFQVF	2.7 µM	2/3	0/9
EGDSLRYYYAN	GKNNPWS	SSRDSSGAQVF	2.2 µM	2/3	3/9
EGDSLPYYYAN	GKNFRAS	SSRDSSGFQVF	310 nM	3/3	3/9
EGDSLRYYYAN	GKNNRSS	SSRDPSGFQVF	92 nM	3/3	1/9
EGDSLRYKYAN	GKNNRMS	SSRDSSGFQSF	260 nM	3/3	3/9
EGDSLRYYYVN	GVNNRTS	SSRDSSGFQVF	15 µM	2/3	5/9
EGDSLRYYYAN	GKNNRYN	SSRDSSGFQVR	2.3 µM	2/3	2/9
EGDSLRYCYAN	GKNNFKS	SSRDSSGFQVF	nd	0/3	0/9
EGDSLRYYYAN	GPNNRLS	SSRDSSGFQVF	2.4 µM	3/3	3/9
EGDWLRYYYAN	PKNNRWS	SSRDSSGFQVF	62 µM	2/3	4/9
EGDSLRYYLAI	GKNNRQS	SSRDSSGFQVF	69 µM	2/3	2/9
EGDSLRYYYAN	GKNNFRS	SYRDSSGFQVF	91 µM	1/3	1/9
EGDSLYYYYAN	GKNNRTS	SSRDSSGEQVF	1.8 µM	2/3	3/9
EGDSLDYYYAN	GMNNRQS	SSRDSSGFQVF	3.6 µM	1/3	2/9
ELDSLRYYYAQ	GKNNRLS	SSRDSSGFQVF	nd	0/3	2/9
EGDSLRYYYAN	GKNNIGS	SSRDSSGFQVM	1.6 µM	3/3	3/9
FGDSLVYYYAN	GKNNRDS	SSRDSSGFQVF	nd	0/3	0/9
EGDSLRYTYAN	PKNNRSS	SSRDSSGFQVF	2.4 µM	3/3	3/9
EGDSLRYYYAN	GKNNRQS	SSRYSSGFQVA	3.1 µM	2/3	4/9
EGDSPRYYYAN	GKNNRCS	SSRDSSGFQVF	49 µM	1/3	3/9
EGDSLRYYYAN	GKNNRHS	SSRDSSGMWVF	nd	0/3	0/9
EGDSLRYYYAN	GKNNRWS	TSRDSSGWQVF	17 µM	2/3	4/9
EGYSLRYYEAN	GKNNRRS	SSRDSSGFQVF	250 nM	3/3	1/9
EGDSLRYYYAN	GKNNRFS	SSTDSSTFQVF	nd	0/3	0/9
EGDSLRYYYDN	GKFNRIS	SSRDSSGFQVF	83 µM	1/3	6/9
EGDSLRYYYAN	GKNNRQS	SSRDTSGFQVF	580 nM	3/3	3/9
EGDSLRYYYAN	GKNNRRS	SSNDSSGFPVF	8.6 µM	1/3	2/9
EGDSLRYYMAN	GKNNRTS	SSRDSSGFAVF	640 nM	3/3	4/9
EGDSLRYYYAN	GKNNRQS	SSMDSSGNQVF	11 µM	1/3	2/9
EGDSLRYYYAN	GKNNRKS	SSRDSWGFQYF	3.2 µM	1/3	1/9
EGDSLRVYYAN	GKNNRLS	SSRDSSGFQSF	36 µM	2/3	4/9
EGDFPRYYYAN	GKNNRCS	SSRDSSGFQVF	3.3 µM	3/3	3/9
VGDSLRYYYAN	GKNNRMS	SSRDSSGFQVF	100 nM	3/3	2/9
EGDSLSYYYAN	WKNNRRS	SSRDSSGFQVF	20 µM	2/3	3/9
EGDSLVYYYAN	GKNNRSS	SSRSSSGFQVF	1.4 µM	2/3	2/9
EGDSLRYYYAN	GKNNRSS	SSRVSSGLQVF	13 µM	3/3	2/9
EWDSLRYNYAN	GKNNRHS	SSRDSSGFQVF	940 nM	3/3	2/9

The opening 6 entries, copied out:

{"CDR-L1": "EGDSLRYYYAN", "CDR-L2": "GKNNRVS", "CDR-L3": "SSRDSSGFQSC", "Kd (apparent)": "650 nM", "seen in": "3/3", "signal with controls": "5/9"}
{"CDR-L1": "EGDSLRYYYAN", "CDR-L2": "KKNNRES", "CDR-L3": "SSRDSSGLQVF", "Kd (apparent)": "22 µM", "seen in": "1/3", "signal with controls": "2/9"}
{"CDR-L1": "EGDSLRYYYAN", "CDR-L2": "GKNNSRS", "CDR-L3": "SSGDSSGFQVF", "Kd (apparent)": "34 µM", "seen in": "1/3", "signal with controls": "3/9"}
{"CDR-L1": "EGDSWDYYYAN", "CDR-L2": "GKNNRMS", "CDR-L3": "SSRDSSGFQVF", "Kd (apparent)": "nd", "seen in": "0/3", "signal with controls": "3/9"}
{"CDR-L1": "EGDSLRYYYAN", "CDR-L2": "GKNNRTS", "CDR-L3": "SSRDSSGFQTF", "Kd (apparent)": "580 nM", "seen in": "3/3", "signal with controls": "0/9"}
{"CDR-L1": "EGDSLRYYYAN", "CDR-L2": "GKNNRHS", "CDR-L3": "SSWDSSGAQVF", "Kd (apparent)": "410 nM", "seen in": "3/3", "signal with controls": "3/9"}

As a blank, each scFv also met three strains without target: over library AAYL52, 28% of these pairings were detected, typically at 8.2 µM and seldom below 800 nM. Also given: how often the same scFv was detected with the empty control strains.
Parent in this assay: reference entry 200 nM, copy in this library 180 nM.